# Ab-95 light chain CDR variants: yeast mating affinities

Source: Engelhart et al. 2022 (doi:10.1038/s41597-022-01779-4), MIT Lincoln Laboratory and A-Alpha Bio; data file from the FLAb repository.

The target is the same throughout: PDVDLGDISGINAS, from the HR2 region of SARS-CoV-2 spike.

Parent: Ab-95, a human scFv built as VH, a (GGGGS)3 linker, VL. Only the CDRs of the light chain vary.
VH: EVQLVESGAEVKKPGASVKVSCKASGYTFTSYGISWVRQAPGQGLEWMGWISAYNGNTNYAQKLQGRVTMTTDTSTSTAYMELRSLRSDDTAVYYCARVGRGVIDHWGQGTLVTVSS
VL: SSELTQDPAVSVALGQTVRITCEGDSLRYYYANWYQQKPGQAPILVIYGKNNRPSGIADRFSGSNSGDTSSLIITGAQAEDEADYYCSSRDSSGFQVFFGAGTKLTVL

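The parent was found by panning a naive human phage display library on the peptide. AAYL52 was designed without a model: most single CDR substitutions and a random sample of double and triple ones. The scFvs were displayed on barcoded MATa yeast, the peptide on MATalpha yeast. The frequency of each diploid, read from paired DNA barcodes, reflects how well the two displayed proteins bind. A regression on co-assayed BCL2-family reference pairs converts the normalised counts of each replicate to an apparent Kd. Mating was done three times.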

Positions count from residue 1 of the parent VL; G24P puts P in place of G. Affinities are written as log10 Kd with Kd in nM; a lower number is a better binder. An entry "nd" has no value in the source: the pair was not observed among the diploids in that replicate. This suggests poor binding but is not conclusive. As a blank, each scFv also met three strains without target: over library AAYL52, 28% of these pairings were detected, typically at 3.91 and seldom below 2.90.

| log10 Kd (nM) by replicate | changes |
|---|---|
| nd 4.16 nd | G24P+D25F+G49Q |
| nd nd nd | N33F+R90T+S92I |
| 5.30 nd nd | R28T+K50M+D91P |
| 2.93 nd nd | Y29P+G49P+S55C |
| nd 4.61 nd | G49S+D91A |
| 2.81 3.44 3.05 | R53E+S55T |
| 2.85 4.93 nd | G49Q+N52L |
| 3.48 nd nd | G24P+Y30P+K50F |
| nd 3.72 2.62 | A32C+S55L+F95K |
| 2.28 2.56 1.76 | Y30D+N51H+N52L |
| nd 3.34 3.44 | S26M+R28P+N52D |
| nd nd nd | A32R+S88Q+F95P |
| 4.13 nd 2.93 | N33D+Q96L |
| 3.26 nd nd | N33T+S88A+D91F |
| 2.62 2.89 1.79 | N51E+N52E+D91W |
| 3.15 nd nd | R53N+S89F |
| nd nd nd | N52P+R53A+S93L |
| 4.53 nd nd | P54D+G94N+V97K |
| 3.40 3.73 nd | R28Q+Y31I |
| 4.01 3.04 3.10 | K50F+R90T+Q96M |
| nd nd nd | N52A+S92Y+Q96G |
| nd 2.98 2.02 | D25M+L27Q+N52Q |
| 2.21 1.97 1.86 | Y29T+V97G+F98W |
| 1.52 1.45 1.15 | Y30A+G94R+V97S |
| 2.99 3.39 3.17 | E23N+D25T+Q96S |
| 2.88 2.93 nd | Y31C+K50I+F98A |
| 4.29 3.67 nd | N33W+K50C+R53V |
| 3.62 2.96 3.88 | N51D+S89P+S92N |
| 2.87 2.74 2.38 | D25P+S55I+F98K |
| 3.69 nd nd | S26L+S55Y+R90C |
| 4.20 5.38 nd | S26W+G49P+P54W |
| 1.32 1.29 0.94 | Y30H+S89T |
| 2.70 3.03 2.76 | G24I+L27M+N33H |
| nd 3.40 3.91 | G24R+N52L+S93F |
| 4.08 4.21 3.25 | Y29D+R53L+V97P |
| nd nd nd | Y30M+A32W+S89L |
| 2.61 2.26 2.40 | D25K+S26N+R28L |

A selection of 6 entries from above:

| changes | log10 Kd (nM) by replicate |
|---|---|
| R53E+S55T | 2.81 3.44 3.05 |
| G24R+N52L+S93F | nd 3.40 3.91 |
| R53N+S89F | 3.15 nd nd |
| Y29D+R53L+V97P | 4.08 4.21 3.25 |
| N52P+R53A+S93L | nd nd nd |
| Y30D+N51H+N52L | 2.28 2.56 1.76 |